Measurements published in article PMC7673040.
Values belong to the substance of their own block, whether it stands above or below them.

Key:
[1] = molecular target: human signal recognition particle labeled with tetramethylrhodamine at residue 12 of SRP54 (human) (UniProt P61011); assay: FRET or BRET; competition: 2.6 nM RNC(ss)^BDP and 4 nM SRP^TMR at equilibrium, 80S titrated in, no NAC; fit to Eq. (7); 25 °C, Assay buffer with 1 mg/mL BSA
[2] = molecular target: human signal recognition particle labeled with tetramethylrhodamine at residue 12 of SRP54 (human) (UniProt P61011); assay: FRET or BRET; competition: 2.6 nM RNC(ss)^BDP and 4 nM SRP^TMR at equilibrium, 80S titrated in, with 1 uM NAC; fit to Eq. (7); 25 °C, Assay buffer with 1 mg/mL BSA
[3] = molecular target: signal recognition particle (SRP), human, labelled with tetramethylrhodamine (TMR) at residue 12 of SRP54 (human) (UniProt P61011); assay: other fluorescence titration; competition: 2.6 nM RNC^BDP (RNC(ss)) and 4 nM SRP^TMR at equilibrium, 80S titrated in, with or without NAC; fit to Eq. (7); Assay buffer with 1 mg/mL BSA
[4] = molecular target: ribosome-nascent chain complex bearing the first ~90 amino acids of pPL(ssmt), labelled with BODIPY-FL on the nascent chain (bovine) (UniProt P01239); assay: other fluorescence titration; as a20 with unlabeled SRP premixed with RNC^BDP at increasing, up to saturating, concentrations; apparent Kd,NAC
[5] = molecular target: ribosome-nascent chain complex bearing the first ~90 amino acids of pPL(ss), labelled with BODIPY-FL on the nascent chain (bovine); assay: as above
[6] = molecular target: ribosome-nascent chain complex bearing the first ~90 amino acids of pPL(ssmt), labelled with BODIPY-FL on the nascent chain (bovine) (UniProt P01239); assay: other fluorescence titration; equilibrium FRET titrations of SRP^TMR into 1 nM RNC^BDP with unlabeled NAC premixed (0-400 nM for RNC(ss), 0-62.5 nM for RNC(ssmt)); global fit to the anti-cooperative co-binding model, Eq. (8); 25 °C, Assay buffer with 1 mg/mL BSA
[7] = molecular target: ribosome-nascent chain complex bearing the first ~90 amino acids of pPL(ss), labelled with BODIPY-FL on the nascent chain (bovine); assay: as above
[8] = molecular target: ribosome-nascent chain complex bearing the first ~90 amino acids of pPL(ssmt), labelled with BODIPY-FL on the nascent chain (bovine) (UniProt P01239)

Ki [1]: 19.6 nM
Ki [2]: 9.5 nM
Kd [3]: 20 nM
Substance: 80S ribosome (complex)

fold increase of Kd,NAC at saturating SRP [4]: < 2 fold
fold increase of Kd,NAC at saturating SRP [5]: 6 fold
Substance: human NAC labelled with Cy3B at the engineered single cysteine C57 of NACβ (from UniProt Q13765 1-215; P20290-2 1-162) (complex)

KD for SRP-bound RNC (α•Kd,NAC) [6]: 3.4 nM
KD for SRP-bound RNC (α•Kd,NAC) [7]: 9.2 nM
apparent rate constant of SRP-SR association (10 nM SRP, 300 nM SR) on 200 nM unlabeled RNC(ssmt) against NAC concentration [8]: > 150 nM
Substance: human nascent polypeptide-associated complex (NAC), unlabeled (from UniProt Q13765 1-215; P20290-2 1-162)
